Laboratory results reported in patent publication US10174035B2, “6-morpholinyl-2-pyrazolyl-9H-purine derivatives and their use as PI3K inhibitors” (Daiichi Sankyo Company, Limited, priority 2015, dated 2019).

Sequences of proteins named here, by UniProt entry; tags and fusion partners are left off. A change or cut given only in a name is not applied to a line headed by its entry.
UniProt O00329, whole entry, species assumed: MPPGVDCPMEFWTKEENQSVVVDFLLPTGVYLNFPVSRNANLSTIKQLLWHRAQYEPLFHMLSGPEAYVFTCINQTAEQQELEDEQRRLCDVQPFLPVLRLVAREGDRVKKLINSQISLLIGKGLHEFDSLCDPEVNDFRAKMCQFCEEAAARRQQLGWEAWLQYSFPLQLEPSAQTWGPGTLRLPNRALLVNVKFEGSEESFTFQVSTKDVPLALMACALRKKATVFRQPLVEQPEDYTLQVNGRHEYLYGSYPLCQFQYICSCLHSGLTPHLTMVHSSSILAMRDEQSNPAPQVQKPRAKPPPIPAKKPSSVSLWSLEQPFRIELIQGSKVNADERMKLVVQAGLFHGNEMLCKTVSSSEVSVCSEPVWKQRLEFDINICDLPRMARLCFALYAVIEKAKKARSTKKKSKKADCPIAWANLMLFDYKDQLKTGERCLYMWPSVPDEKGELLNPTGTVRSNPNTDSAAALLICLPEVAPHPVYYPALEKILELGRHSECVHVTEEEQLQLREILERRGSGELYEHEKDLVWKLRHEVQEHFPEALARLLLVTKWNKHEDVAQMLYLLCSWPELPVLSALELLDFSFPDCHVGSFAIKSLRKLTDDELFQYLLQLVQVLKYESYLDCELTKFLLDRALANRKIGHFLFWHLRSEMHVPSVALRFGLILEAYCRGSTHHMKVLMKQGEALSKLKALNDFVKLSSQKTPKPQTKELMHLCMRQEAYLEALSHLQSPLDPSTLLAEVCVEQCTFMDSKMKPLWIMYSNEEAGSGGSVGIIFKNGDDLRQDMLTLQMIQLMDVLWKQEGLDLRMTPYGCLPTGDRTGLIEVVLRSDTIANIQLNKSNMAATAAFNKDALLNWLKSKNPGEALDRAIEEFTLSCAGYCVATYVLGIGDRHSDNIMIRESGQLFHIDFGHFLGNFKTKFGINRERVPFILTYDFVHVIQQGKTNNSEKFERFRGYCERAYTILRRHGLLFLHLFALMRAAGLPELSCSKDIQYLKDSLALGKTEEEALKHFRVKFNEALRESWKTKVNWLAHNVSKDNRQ

Target: recombinant PI3K δ enzyme (Homo sapiens (Human), UniProt O00329)
Experiment: In vitro enzyme assay (Kinase-Glo luminescent kinase assay), PI3Kδ
Format: biochemical
Method: The Kinase-Glo luminescent kinase assay kit (from Promega) was used to measure kinase activity. In this assay, amount of ATP remaining in solution following a kinase reaction is measured. The effect of compounds on PI3Kδ inhibition was carried out by adding 2.29 μg/ml of recombinant PI3K δ enzyme (Proteros, Germany) to reaction mixture containing assay buffer (50 mM HEPES, pH 7.4, 50 mM NaCl, 0.05% CHAPS) supplemented with 10 mM MgCl2, 5 mM DTT, 60 μM Phosphatidyl inositol bisphosphate (PIP2) and 10 μM ATP in the absence or presence of different concentrations of the compounds in a final volume of 15 μl/well, in a 384 well plate. The reaction mixture was incubated for 2 hours at room temperature. At the end of incubation period the equal volume of Kinase-Glo plus (Promega, V3772), was added per well and the luminescence was measured after incubating for 10 minutes at room temperature in dark. Results were calculated by measuring the luminescence units of test samples to blanks containing no enzyme.
The compounds of the present invention were tested for their selectivity for PI3Kδ over PI3Kα, PI3Kβ and PI3Kγ following the above assay using specific recombinant enzymes (Proteros, Germany) for each kinase. Assay condition of kinase assay (PI3Kα, PI3Kβ, PI3Kγ and PI3Kδ) was as follows. Enzyme: 2.29 μg/mL; ATP: 10 μM; PIP2 substrate: 60 μM and Reaction Time: 2 hours.

| SMILES | IC50 |
| --- | --- |
| C[C@@H]1CN(C2CCN(C(=O)c3nc4c(N5CCOCC5)nc(-c5cnn(C)c5)nc4[nH]3)CC2)C[C@H](C)O1 [compound 5, {4-[cis-2,6-Dimethylmorpholin-4-yl]piperidin-1-yl}[2-(1-methyl-1H-pyrazol-4-yl)-6-(morpholin-4-yl)-9H-purin-8-yl]methanone] | 11 nM |
| C[C@@H]1CN(C2CCN(C(=O)c3nc4c(N5CCOCC5)nc(-c5cn[nH]c5)nc4[nH]3)CC2)C[C@H](C)O1 [compound 65, {4-[cis-2,6-Dimethylmorpholin-4-yl]piperidin-1-yl}[6-(morpholin-4-yl)-2-(1H-pyrazol-4-yl)-9H-purin-8-yl]methanone] | 12 nM |
| Cc1nn(C)cc1-c1cc(N2CCOCC2)c2nc(C(=O)N3CCC(N4C[C@@H](C)O[C@@H](C)C4)CC3)[nH]c2n1 [compound 113, {4-[cis-2,6-Dimethylmorpholin-4-yl]piperidin-1-yl}[5-(1,3-dimethyl-1H-pyrazol-4-yl)-7-(morpholin-4-yl)-3H-imidazo[4,5-b]pyridin-2-yl]methanone] | 6 nM |
